In ChEMBL document CHEMBL1132560, “N-Substituted 2-(2,6-dinitrophenylamino)propanamides: novel prodrugs that release a primary amine via nitroreduction and intramolecular cyclization” (J Med Chem, 1999):

Tests used:
SK-OV-3 = experiment: Cytotoxicity on SKOV3 cells growth (reduce cell number by 50%).
[1] = Cytotoxicity on AA8 cell growth (reduce cell number by 50%).
[2] = Cytotoxicity on UV4 cells growth (reduce cell number by 50%).
EMT6 = experiment: Cytotoxicity on EMT6 cells growth (reduce cell number by 50%).

With Nc1ccc(N(CCCl)CCCl)cc1 as the compound, how does the IC50 (SK-OV-3) read?
Its IC50 is 2400 nM.

What about the IC50 [1] of the same compound?
The IC50 was 5700 nM.

And the IC50 [2]?
Its IC50 is 90 nM.

What about the IC50 (EMT6) of the same compound?
The IC50 was 1200 nM.
